Source: article PMC1968247, “Pre-clinical evaluation of a novel chloroethylating agent, Clomesone” (British Journal of Cancer, 1993)
Read-outs that look alike come from different tables or passages of the source.

Test system: MAC 26 tumours
Details: for Tumour growth delay: MAC 26
Procedure: Br. J. Cancer (1993), 67, 441 446 t? […] Bibby Clinical Oncology Unit, University of Bradford, West Yorkshire, BD7 JDP, UK. […] In vivo anti-tumour activity was examined against three transplantable adenocarcinomas of the mouse colon and in vivo bone marrow toxicity was assessed using a spleen colony forming unit assay. The pharmacokinetic behaviour of the drug in vivo and drug stability in vitro was analysed by gas chromatography with electron capture detection. […] Clinical responses to cytotoxic agents have been largely restricted to the haematological malignancies while the majority of human solid tumours have remained refractory to chemotherapy (Marsoni et al., 1987). […] However, their clinical usefulness has been limited by non-selective host toxicity, particularly myelosuppres- sion. The chloroethylnitrosoureas decompose spontaneously in aqueous solution to generate reactive intermediates that are capable of alkylating and carbamoylating nucleophilic targets (Cheng et al., 1972). Alkylation reactions consist of chloroethylations and hydroxyethylations of DNA (Tong et al., 1982). Chloroethylation of 06-guanine with subsequent cross-link formation is considered to be the most important cytotoxic reaction (Lown et al., 1978) while hydroxyethyla- tion reactions are thought to be responsible for their mutagenic and carcinogenic effects (Pelfrene et al., 1976; Swenson et al., 1979). […] In the search for other types of compound that would chloroethylate DNA, a series of 2-haloethylsulphonates was synthesised (Shealy et al., 1983). […] Recently, the NCI has introduced a new disease-orientated screening programme based on the assessment of the in vitro cytotoxicity of a panel of cell lines representing the common clinical forms of human cancers using a colorimetric assay (Boyd, 1989). […] One reason for this discrepancy is that the in vitro tests ignore the potential role played by the pharmacokinetic behaviour and bioavailability of a drug in determining tumour responses in vivo. […] It has been used extensively as part of the pre-clinical evaluation of new anti-cancer agents within the Screening and Pharmacology Group of the EORTC (Bibby et al., 1988b). The feasibility of performing minimal toxicity studies in conjunction with anti-tumour studies has been described (Bibby et al., 1988b). […] Correspondence: A.M. Matthew. Received 6 December 1991; and in revised form 13 October 1992. Br. J. Cancer (1993), 67, 441-446 '?" Macmillan Press Ltd., 1993 442 A.M. MATIHEW et al. ethylating agents with improved therapeutic indices. The assessment of stem cell survival has been recommended to study irreversible cytotoxic bone marrow injury (Schofield, 1986) and this can be performed readily in mice using a spleen colony forming unit assay.

Compound | Tumour growth delay (150 mg kg-1 ip) | Tumour growth delay (200 mg kg-1 ip) | Activity against MAC 26 tumour (in words) (relatively nitrosourea-resistant solid sc tumour, 100 mg kg-1 ip not different from control (P> 0.1)) | Tumour growth delay (50 mg kg-1 ip)
CS(=O)(=O)CS(=O)(=O)OCCCl [Clomesone, 2-chloroethyl(methylsulphonyl)methanesulphonate] | Toxic | Toxic | inactive | –
CN(C)S(=O)(=O)CCNC(=O)N(CCCl)N=O [TCNU, 1-(2-chloroethyl)-3-[2-(dimethylaminosulphonyl)ethyl]-I -nitro-sourea, reference compound] | – | – | – | Toxic
